The source of these data is patent US20100189647A1, “Experimental Animal As Pathological Model, Method of Producing the Experimental Animal, and Method of Using the Experimental Animal” (priority 2006, published 2010).

The subject of this assay is hemoglobin. The experiment in a line: Methemoglobin formation in blood after intraperitoneal administration. The class given is in vivo, rat. Particulars: 50 mg/kg intraperitoneal. As to the method: A cannula was placed beforehand in the carotid artery of rats, and production of methemoglobin converted from hemoglobin (hereinafter referred to as methemoglobin) was tracked using blood samples collected over time, at 15 and 30 min and 1, 2, 3, 4, 5, and 6 h, from the placed silicon tube.

Molecules are shown by their SMILES.

On to `O=NO` [sodium nitrite], for which the blood methemoglobin level reads like this: (30 min after administration) 4.30 g/dL; (1 h after administration) 2.93 g/dL; (2 h after administration) 1.70 g/dL; (3 h after administration) 1.0 g/dL; (4 h after administration) 0.52 g/dL; (5 h after administration) 0.22 g/dL. Further, the blood methemoglobin level (within 6 h (returned to baseline level before administration)) was 0.16 g/dL.
